# Antibody variant affinities, Ab-14 heavy chain, assay B

Target peptide (SARS-CoV-2 spike, HR2 region): PDVDLGDISGINAS

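These sequences belong to a second round, designed from the earlier measurements on random variants of the parent. Group labels follow the data file (Ctrl: baseline library sampled from a position-specific scoring matrix, with some repeated check sequences; Rand: our label for a block that the file lists under HC and that is probably the random mutants of the ten best first-round binders; GP: Gaussian process model; GPLM: also part of the Gaussian process libraries; HC: hill climbing; Gen: genetic algorithm; Gibbs: Gibbs sampling; a sequence that several methods proposed may carry one label only). The scFvs were displayed on barcoded MATa yeast, the peptide on MATalpha yeast. After mating in shaken culture at 30 °C for 16 h, diploids were selected and their barcode pairs sequenced. The ratio of observed to expected reads was calibrated, replicate by replicate, on BCL2-family standards whose Kd was known from biolayer interferometry. There are six technical replicates.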

Parent: Ab-14, a human scFv built as VH, a 15-residue (Gly4Ser)3 linker, VL. Only the CDRs of the heavy chain vary.
VH: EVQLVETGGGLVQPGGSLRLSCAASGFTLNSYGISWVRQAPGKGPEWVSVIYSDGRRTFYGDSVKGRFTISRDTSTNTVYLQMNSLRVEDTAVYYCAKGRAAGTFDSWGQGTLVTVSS
VL: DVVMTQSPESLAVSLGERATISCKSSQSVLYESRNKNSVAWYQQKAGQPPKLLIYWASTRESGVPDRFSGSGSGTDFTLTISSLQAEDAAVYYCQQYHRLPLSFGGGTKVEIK

Changes read parent residue, position, new residue, counted from the first residue of the VH shown. Variants here have at most six changes. Values are apparent Kd, the geometric mean of the replicates that gave a signal; lower means stronger binding. Where no diploid with the target was found in any replicate, the entry reads "no signal": below detection, most likely a poor binder, though not proof of it.

With S31N+S53F+G103L+F105Y+D106I [Rand] the result was no signal (0 of 6 replicates; controls 0 of 18).
With N30D+G61A+A101G [Ctrl] the result was 110 nM (2 of 6 replicates; controls 0 of 18).
With T28S+S63R+R100N [GP_Gibbs] the result was 8.2 nM (6 of 6 replicates; controls 0 of 18).
With T28D+S63P+A101Q [GP_Gen] the result was 3.8 nM (6 of 6 replicates; controls 0 of 18).
With T28S+S31W+G61A+A101T [GPLM_Gen] the result was no signal (0 of 6 replicates; controls 0 of 18).
With T28E+G61I+R100Q+S107L [GPLM_Gibbs] the result was 10 nM (6 of 6 replicates; controls 0 of 18).
With T28V+S31E+G61A+A101D [GP_HC] the result was 23 nM (6 of 6 replicates; controls 0 of 18).
With S31E+A101T+D106I+S107L [GP_HC] the result was 91 nM (1 of 6 replicates; controls 0 of 18).
With N30F+S31Q+G61S+T104F [Rand] the result was 14 nM (4 of 6 replicates; controls 0 of 18).
With R56V+A101M+T104A [Ctrl] the result was no signal (0 of 6 replicates; controls 0 of 18).
With S53A+R100K+S107R [GPLM_Gen] the result was 4.7 nM (6 of 6 replicates; controls 1 of 18).
With G26H+A101Y [Ctrl] the result was 120 nM (2 of 6 replicates; controls 1 of 18).
With S31Q+G61S+R100Q+A101E [GPLM_HC] the result was 380 pM (6 of 6 replicates; controls 0 of 18).
With L29V+Y32H [Ctrl] the result was no signal (0 of 6 replicates; controls 0 of 18).
With N30D+S31N+A101T [GP_HC] the result was 2.6 nM (6 of 6 replicates; controls 0 of 18).
With T28D+R56K+R100Q+S107A [GP_Gibbs] the result was 1.1 nM (4 of 6 replicates; controls 1 of 18).
With T28D+D106H [Ctrl] the result was no signal (0 of 6 replicates; controls 0 of 18).
With T28S+G61A+S63T+R100Q+A101T [GPLM_Gen] the result was 3.8 nM (6 of 6 replicates; controls 0 of 18).
With S35Q+F59V+G61S+A101C+A102G [Rand] the result was no signal (0 of 6 replicates; controls 0 of 18).
With S31D+T58M+F59Q+G61I+T104L [Rand] the result was no signal (0 of 6 replicates; controls 0 of 18).
With T28A+S31E+R100Q+A101T [GPLM_Gibbs] the result was 1.0 nM (6 of 6 replicates; controls 0 of 18).
With T28G+N30T+R100K [Ctrl] the result was 4.6 nM (2 of 6 replicates; controls 0 of 18).
With N30D+G61H [Ctrl+GP_HC] the result was 7.5 nM (12 of 12 replicates; controls 0 of 36).
With S31E+S107F [GPLM_HC] the result was 21 nM (6 of 6 replicates; controls 0 of 18).
With T28N+S63R+R100Q+S107T [GP_Gibbs] the result was 8.7 nM (4 of 6 replicates; controls 1 of 18).
With T28S+G61T+R100K+A101E [GPLM_Gibbs] the result was no signal (0 of 6 replicates; controls 1 of 18).
With G26Y+T28D+R56K+A101Q [GP_Gibbs] the result was 380 pM (6 of 6 replicates; controls 2 of 18).
With S53A+R100N+S107D [GP_Gibbs] the result was 900 pM (6 of 6 replicates; controls 0 of 18).
With G26K+S31E+G61T+A101Y [GP_HC] the result was 7.3 nM (1 of 6 replicates; controls 0 of 18).
With T28D+T104C+D106W [GPLM_HC] the result was no signal (0 of 6 replicates; controls 0 of 18).
With G61S+R100E+A101S [GP_HC] the result was 6.4 nM (5 of 6 replicates; controls 0 of 18).
With T28D+G61H+T104C+D106N [GP_HC] the result was no signal (0 of 6 replicates; controls 0 of 18).

Nonspecific signal, from three strains lacking the peptide, appeared in 1% of pairings of all heavy chain designs, centred on 120 nM (5% of these signals below 7.0 nM); values are not corrected for it. For each scFv, signals with the empty controls are counted beside the result. Values of this round are not directly comparable with the first-round values of the same sequences. A sequence that the file lists under several names has all its replicates pooled. In the paper, a design with two or fewer of six values counts as a poor binder. Of ten entries with the parent sequence, four were seen in most replicates (averages 2.2 nM to 240 nM), three in one and three in none, so single entries are noisy.

Data: MIT Lincoln Laboratory AlphaSeq set, Li et al. 2023, doi:10.1038/s41467-023-39022-2, as distributed in FLAb.